# The entries are a selection whose mix differs from that of the whole data set. Inconclusive results are not listed. The source made the active and inactive calls. Calls come from the whole dose curve; as a rule, active = well fitted cell-killing curve with a large enough effect; inconclusive = small, poorly fitted or top-dose-only effect, or effect the other way; inactive = flat fitted curve, though single readings scatter.
# Assay: qHTS for induction of synthetic lethality in tumor cells producing 2HG: qHTS for the HT-1080-NT fibrosarcoma cell line;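 note: NT is the 2HG producing partner of a matched IDH1 knockdown line; nearly all actives have a fitted effect of over 55% in size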
# Settings: HT-1080-NT fibrosarcoma viability, CellTiter-Glo ATP luminescence, 48 h
# Text: Unbiased genomic sequencing for 22 glioma genomes found recurrent mutation of IDH1 on chromosome 2q33, a gene encoding the cytosolic isoform of IDH1 associated with the tricarboxylic acid cycle (TCA) that catalyzes the oxidative decarboxylation of isocitrate, yielding alpha-ketoglutarate and CO2 via NADP+ to NADPH conversion. Subsequent studies confirmed the recurrent IDH mutations in up to 70% of secondary gliomas and in 10% of AML cases. […]
# Suspensions of trypsinized HT-1080-NT cells were dispensed into white, tissue culture-treated, solid 1536-well plates at 5uL/well (750 cells/well final concentration) in RPMI medium supplemented with 5% FBS. […] The plates were measured on a PerkinElmer ViewLux plate reader for luminescent signal (clear filter, 1 sec exp). […]
# Concentration-response curves were fitted to the signals arising from the resulting luminescence. The concentration-effect curves were then classified based on curve quality (r2), response magnitude and degree of measured activity, and compounds were subsequently categorized based on their curve class.
# Potency is the fitted concentration of half-maximal effect.
row,Structure (SMILES),Potency
1,CC[n+]1c(/C=C/N(C)c2ccccc2)oc2ccccc21,active: 2060 nM

# — PubChem BioAssay AID686970 (National Center for Advancing Translational Sciences (NCATS), 2013)
